Measurements: ChEMBL document CHEMBL5579883, “Discovery of Novel Neo-Clerodane Derivatives as Potent Dual-Functional Antiosteoporosis Agents through Targeting Peroxisome Proliferator-Activated Receptor-γ” (J Med Chem, 2024)
Active and inactive are the calls of the source. No cut-off for these calls is given here.

The chains behind the UniProt entries cited, without tags or fusion partners.
UniProt O75376, whole entry: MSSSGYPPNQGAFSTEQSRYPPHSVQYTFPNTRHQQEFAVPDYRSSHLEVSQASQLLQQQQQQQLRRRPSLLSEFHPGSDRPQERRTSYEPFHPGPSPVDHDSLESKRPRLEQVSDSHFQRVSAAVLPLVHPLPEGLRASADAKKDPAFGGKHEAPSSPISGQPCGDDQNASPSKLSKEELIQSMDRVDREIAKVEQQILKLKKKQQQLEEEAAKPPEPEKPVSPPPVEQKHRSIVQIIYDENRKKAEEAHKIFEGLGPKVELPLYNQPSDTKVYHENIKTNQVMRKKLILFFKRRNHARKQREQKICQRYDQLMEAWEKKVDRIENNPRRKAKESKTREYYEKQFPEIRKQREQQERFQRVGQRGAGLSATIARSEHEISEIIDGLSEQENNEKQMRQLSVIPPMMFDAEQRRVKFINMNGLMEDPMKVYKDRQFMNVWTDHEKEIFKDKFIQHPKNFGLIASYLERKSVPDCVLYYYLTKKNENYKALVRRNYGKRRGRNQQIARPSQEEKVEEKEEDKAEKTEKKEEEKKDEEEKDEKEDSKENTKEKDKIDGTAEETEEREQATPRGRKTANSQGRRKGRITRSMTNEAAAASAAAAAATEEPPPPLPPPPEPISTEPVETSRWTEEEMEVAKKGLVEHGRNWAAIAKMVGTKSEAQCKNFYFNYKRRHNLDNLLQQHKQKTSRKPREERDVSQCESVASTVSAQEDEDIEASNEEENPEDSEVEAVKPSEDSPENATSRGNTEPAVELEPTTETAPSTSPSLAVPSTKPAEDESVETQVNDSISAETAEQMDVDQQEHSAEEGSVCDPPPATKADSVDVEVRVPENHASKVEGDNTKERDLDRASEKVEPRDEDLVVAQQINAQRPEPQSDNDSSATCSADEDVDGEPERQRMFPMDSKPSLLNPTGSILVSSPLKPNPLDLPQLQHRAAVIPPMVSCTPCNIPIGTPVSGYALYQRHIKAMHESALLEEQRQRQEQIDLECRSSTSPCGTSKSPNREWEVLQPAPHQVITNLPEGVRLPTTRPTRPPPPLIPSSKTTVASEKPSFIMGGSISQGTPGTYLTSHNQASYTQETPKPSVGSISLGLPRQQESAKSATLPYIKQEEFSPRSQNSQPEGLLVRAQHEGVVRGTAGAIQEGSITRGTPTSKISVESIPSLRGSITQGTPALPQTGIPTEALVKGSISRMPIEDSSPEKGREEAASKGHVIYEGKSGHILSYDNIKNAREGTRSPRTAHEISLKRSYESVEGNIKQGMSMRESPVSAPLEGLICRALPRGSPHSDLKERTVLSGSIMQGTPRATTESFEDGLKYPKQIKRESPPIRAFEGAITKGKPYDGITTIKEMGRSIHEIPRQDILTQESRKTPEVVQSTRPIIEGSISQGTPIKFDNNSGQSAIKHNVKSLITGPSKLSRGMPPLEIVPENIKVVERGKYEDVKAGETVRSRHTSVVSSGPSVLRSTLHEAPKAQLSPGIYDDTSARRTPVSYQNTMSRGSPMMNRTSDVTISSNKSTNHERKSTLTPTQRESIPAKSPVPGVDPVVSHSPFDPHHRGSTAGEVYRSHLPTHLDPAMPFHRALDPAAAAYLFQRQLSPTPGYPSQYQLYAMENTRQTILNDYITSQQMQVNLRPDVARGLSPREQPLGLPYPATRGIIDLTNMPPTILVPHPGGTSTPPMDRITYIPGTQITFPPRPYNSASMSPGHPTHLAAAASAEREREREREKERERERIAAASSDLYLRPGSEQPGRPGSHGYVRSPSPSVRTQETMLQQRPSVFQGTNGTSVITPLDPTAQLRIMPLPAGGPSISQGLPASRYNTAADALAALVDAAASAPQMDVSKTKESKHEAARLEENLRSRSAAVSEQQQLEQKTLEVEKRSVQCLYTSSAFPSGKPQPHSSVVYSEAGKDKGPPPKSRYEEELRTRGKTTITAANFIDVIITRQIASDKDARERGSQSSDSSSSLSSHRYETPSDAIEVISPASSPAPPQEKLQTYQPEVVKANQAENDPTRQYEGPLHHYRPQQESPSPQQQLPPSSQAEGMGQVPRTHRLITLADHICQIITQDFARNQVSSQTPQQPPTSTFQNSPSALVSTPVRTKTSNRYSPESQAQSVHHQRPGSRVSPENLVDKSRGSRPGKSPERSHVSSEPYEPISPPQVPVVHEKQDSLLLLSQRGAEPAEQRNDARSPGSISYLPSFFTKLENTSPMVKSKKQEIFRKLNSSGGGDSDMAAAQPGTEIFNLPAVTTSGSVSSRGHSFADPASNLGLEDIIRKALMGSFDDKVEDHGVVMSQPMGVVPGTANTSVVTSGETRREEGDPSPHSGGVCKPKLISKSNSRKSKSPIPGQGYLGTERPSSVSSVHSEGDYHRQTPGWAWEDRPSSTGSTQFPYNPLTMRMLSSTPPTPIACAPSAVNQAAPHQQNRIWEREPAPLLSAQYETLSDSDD

Experiments:
[1] = molecular target: T1, Peroxisome proliferator-activated receptor gamma coactivator 1-alpha (Homo sapiens) (UniProt Q9UBK2); assay: Effect on PGC-1 alpha recruitment (unknown origin) incubated for 24 hrs at 10 uM by TR-FRET assay
T1 sequence (whole entry): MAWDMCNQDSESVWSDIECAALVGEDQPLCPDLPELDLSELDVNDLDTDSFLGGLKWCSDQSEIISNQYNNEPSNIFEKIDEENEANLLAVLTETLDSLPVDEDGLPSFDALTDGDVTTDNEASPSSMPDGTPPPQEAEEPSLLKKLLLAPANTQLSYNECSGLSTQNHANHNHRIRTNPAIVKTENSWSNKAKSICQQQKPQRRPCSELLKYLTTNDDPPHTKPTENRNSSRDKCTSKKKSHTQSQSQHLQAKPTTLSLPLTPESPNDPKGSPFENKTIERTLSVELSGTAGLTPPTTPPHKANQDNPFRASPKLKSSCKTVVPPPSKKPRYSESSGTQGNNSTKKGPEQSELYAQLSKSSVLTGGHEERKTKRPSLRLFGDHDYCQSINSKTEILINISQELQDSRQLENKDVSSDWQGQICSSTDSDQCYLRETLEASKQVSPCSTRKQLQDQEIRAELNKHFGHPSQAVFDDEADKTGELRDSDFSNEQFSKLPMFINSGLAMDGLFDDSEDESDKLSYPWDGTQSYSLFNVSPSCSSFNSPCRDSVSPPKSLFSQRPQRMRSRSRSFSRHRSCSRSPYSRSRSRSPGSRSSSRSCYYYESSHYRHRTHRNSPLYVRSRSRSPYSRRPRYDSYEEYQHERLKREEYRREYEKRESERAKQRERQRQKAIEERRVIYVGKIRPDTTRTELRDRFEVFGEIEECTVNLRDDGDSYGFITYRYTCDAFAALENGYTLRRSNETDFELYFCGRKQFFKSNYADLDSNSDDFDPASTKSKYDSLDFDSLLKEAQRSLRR

[2] = molecular target: Nuclear receptor corepressor 1 (Homo sapiens) (UniProt O75376); assay: Effect on NCoR recruitment (unknown origin) at 10 uM incubated for 24 hrs by TR-FRET assay

Activity [1]: inactive | Activity [2]: inactive
SMILES: C[C@@H]1C[C@H](O)[C@@]2(COC(=O)c3ccc(C(F)(F)F)cc3)C(=O)CCC[C@@H]2[C@@]1(C)CCC1=CC(=O)OC1
